Values of other authors in patent US20060036094A1, “Method for producing zoanthamine alkaloid and intermediate used in same” (priority 2004, published 2006).

System: ovariectomized mice

CC1=CC(=O)[C@H]2CC(=O)[C@H]3[C@@](C)(C[C@@]45OC(=O)C[C@]3(C)[C@]4(C)CC[C@]34C[C@@H](C)C[C@H](CN35)O4)[C@@H]2C1 [norzoanthamine]
suppression of loss of bone weight and strength: significantly suppress loss of bone weight and strength
